This note sets out measurements from PubChem BioAssay AID1020 (Sanford-Burnham Center for Chemical Genomics, 2008).

SMILES strings stand for the structures. Only a part is listed here, and it is no random draw. Calls of active or inactive are those of the source. No stated cut-off is given here; in the data, active means inhibition above about 50%; inactive means the rest.

The subject of this experiment is glucose-6-phosphate dehydrogenase [Leuconostoc mesenteroides]. The experiment can be described thus: bacterial G6PDH enzyme inhibition, coupled readout – biochemical, Leuconostoc mesenteroides enzyme, counter-screen for G6PDH-coupled screening assays (AID 1020). Particulars: Purified L. mesenteroides G6PDH, diaphorase/resazurin coupled fluorescence, 45 min; at 5 µM; active compounds read high. A general note: The purpose of a counterscreen is to sort out artefacts and off-target activity.
For `CN(C)CCOC(=O)C(O)(c1ccccc1)C1CCCCC1` (stereo not given), the inhibition was inactive: 5.2%.
For the molecule `COc1ccc(NP(C)(=O)Oc2ccccc2OC)cc1` (stereo not given), the inhibition is inactive: 3.6%.
As to `COc1ccc(OP(C)(=O)Nc2cccc(Br)c2)cc1` (stereo not given), the inhibition was inactive: -1.1%.
Consider `O=[N+]([O-])c1cc([N+](=O)[O-])c(NCC2CCS(=O)(=O)C2)c([N+](=O)[O-])c1` (stereo not given), for which the inhibition is inactive: 20.4%.
Consider `CCOP(C)(=S)SCC(=O)NC(C)(CC)C(=O)O` (stereo not given), for which the inhibition was inactive: 7.1%.
To `Cc1ccccc1NP(C)(=O)Nc1ccccc1C` belongs inactive: 13.7%; to `CP(=O)(Nc1ccc2c(c1)OCCO2)Oc1ccccc1` (stereo not given), inactive: -4.7%; to `CP(=O)(Nc1ccccc1F)Oc1ccccc1` (stereo not given), inactive: 6.2%.
To `CC(C)c1ccc(OP(C)(=O)Nc2ccc(SC(F)(F)F)cc2)cc1` (stereo not given) belongs inactive: 4.1%.
For the molecule `O=C(OCCN1CCN(CCOCc2ccccc2)CC1)C(O)(c1ccccc1)c1ccccc1`, the inhibition was inactive: 2.5%.
For `CCOC(=O)c1ccc(NP(C)(=O)Oc2ccc(F)cc2)cc1` (stereo not given), the inhibition is inactive: 9.5%.
With `COc1ccc(OP(C)(=O)Nc2ccc(SC(F)(F)F)cc2)cc1` (stereo not given), the inhibition was inactive: 7.1%.
Consider `CP(=O)(Nc1ccccc1)Oc1ccc(F)cc1` (stereo not given), for which the inhibition is inactive: 0.9%.
To `CCN(CC)CCCOC(=O)C(O)(c1ccccc1)C1CCCCC1` (stereo not given) belongs inactive: 1%; to `COc1ccccc1OP(C)(=O)Nc1ccc(C)c(C)c1` (stereo not given), inactive: -4.3%.
With `COc1ccc(OP(C)(=O)Nc2ccccc2Br)cc1` (stereo not given), the inhibition was inactive: -13.1%.
On to `Cc1cc(C)cc(OP(C)(=O)Nc2cccc(C(F)(F)F)c2)c1` (stereo not given), for which the inhibition is inactive: 13.4%.
In the case of `CP(=O)(OCCOc1ccccc1)OCCOc1ccccc1`, the inhibition is inactive: 1.5%.
With `CP(=O)(Nc1ccc(Cl)cc1Cl)Oc1ccccc1` (stereo not given), the inhibition was inactive: 2%.
Turning to `Cc1nc2ccc3ccccc3c2o1.O=[N+]([O-])c1cc([N+](=O)[O-])c(O)c([N+](=O)[O-])c1`, the inhibition was active: 52.5%.
To `COc1ccc(OP(C)(=O)Nc2ccccn2)cc1` (stereo not given) belongs inactive: -0.7%.
To `CN(C)CCOC(=O)C(O)(c1ccccc1)C1CCCC1` (stereo not given) belongs inactive: 9%; to `COc1ccccc1OP(C)(=O)Nc1ccc(C)cc1C` (stereo not given), inactive: 12.2%; to `CP(=O)(Nc1ccccn1)Oc1ccccc1` (stereo not given), inactive: -13.4%.
To `CCc1ccc(OP(C)(=O)O)cc1` belongs inactive: 17%; to `O=[N+]([O-])c1cc([N+](=O)[O-])c(Nc2ccccn2)c([N+](=O)[O-])c1`, active: 62.7%.
As to `Cc1c(NP(C)(=O)Oc2ccc(C(C)C)cc2)c(=O)n(-c2ccccc2)n1C` (stereo not given), the inhibition was inactive: 8%.
To `COc1ccccc1OP(C)(=O)Nc1c(C)n(C)n(-c2ccccc2)c1=O` (stereo not given) belongs inactive: -2.3%; to `CCc1ccc(OP(C)(=O)Nc2cccnc2)cc1` (stereo not given), inactive: -4.9%.
`CP(=O)(Oc1ccccc1)N1CCOC1=O` (stereo not given): the inhibition is inactive: 7.4%.
Then `COc1ccc(OP(C)(=O)Nc2ccc(Br)cc2)cc1` (stereo not given), with inactive: 2.9%; and `CCN(CC)CC(O)COC(=O)C(O)(c1ccccc1)C1CCCCC1` (stereo not given), with inactive: 4.2%.
Then `CN(C)C(=O)c1c([N+](=O)[O-])cc([N+](=O)[O-])cc1[N+](=O)[O-]`, with inactive: 18.6%; and `CC(C)(C)c1ccc(OP(C)(=O)O)cc1`, with inactive: 6.4%; and `COc1ccccc1OP(C)(=O)Nc1ccccc1Br` (stereo not given), with inactive: 17.3%.
As to `CP(=O)(Nc1ccc(Cl)cc1)Oc1ccc(F)cc1` (stereo not given), the inhibition was inactive: 4.4%.
Turning to `CCOC(=O)c1ccc(NP(C)(=O)Oc2ccc(Cl)cc2)cc1` (stereo not given), the inhibition is inactive: 1.3%.
To `CP(=O)(OC12CC3CC(CC(C3)C1)C2)OC12CC3CC(CC(C3)C1)C2` belongs inactive: -1.5%.
With `CP(=O)(Nc1ccccc1Br)Oc1ccccc1` (stereo not given), the inhibition was inactive: 4.9%.
Take `COc1ccccc1OP(C)(=O)Nc1ccccc1` (stereo not given): the inhibition is inactive: 7%.
In the case of `CP(=S)(Nn1cnnc1)Oc1ccccc1` (stereo not given), the inhibition is inactive: -7.8%.
For `Cc1cc(C)cc(OP(C)(=O)Nc2ccc(SC(F)(F)F)cc2)c1` (stereo not given), the inhibition is inactive: -22.1%.
Turning to `CP(=O)(NC(=O)Nc1ccccc1)Oc1ccccc1` (stereo not given), the inhibition was inactive: -0.6%.
To `CP(=O)(Oc1ccccc1)OC(c1ccccc1)C(F)(F)F` (stereo not given) belongs inactive: 13.5%.
To `Cc1cccc(C)c1OP(C)(=O)Nc1ccc(SC(F)(F)F)cc1` (stereo not given) belongs inactive: -4.5%.
Regarding `CP(=O)(Nc1ccccn1)Oc1ccc(Cl)cc1` (stereo not given), the inhibition was inactive: 4.2%.
With `CCOC(=O)c1ccc(NP(C)(=O)Oc2ccc(OC)cc2)cc1` (stereo not given), the inhibition is inactive: 10.2%.
As to `CCOP(C)(=S)SCC(=O)NC(C)C(=O)O` (stereo not given), the inhibition is inactive: 16.7%.
As for `CCN(CC)CCCOC(=O)C(O)(c1ccccc1)c1ccccc1`, the inhibition is inactive: -6.6%.
To `O=[N+]([O-])c1ccc2c(c1)C=Nc1ccccc1O2` belongs inactive: 2.3%; to `Cc1cccc(C)c1OP(C)(N)=O` (stereo not given), inactive: 6.6%.
To `CC(C)(C)c1ccc(OP(C)(=O)Nc2ccc(SC(F)(F)F)cc2)cc1` (stereo not given) belongs inactive: 4.2%; to `Cc1cc(C)cc(OP(C)(N)=O)c1` (stereo not given), inactive: 14.8%; to `COc1ccc(OP(C)(=O)Nc2cccc(F)c2)cc1` (stereo not given), inactive: 5.6%.
Turning to `COc1ccccc1OP(C)(=O)Nc1cc(Cl)ccc1C` (stereo not given), the inhibition was inactive: 2.8%.
To `Cc1ccc(NP(C)(=O)Oc2ccccc2)c(C)c1` (stereo not given) belongs inactive: 19.2%.
As to `COc1ccccc1OP(C)(=O)Nc1ccc(C)cc1` (stereo not given), the inhibition is inactive: 6%.
Regarding `CCOC(=O)c1ccc(NP(C)(=O)Oc2ccccc2)cc1` (stereo not given), the inhibition is inactive: 0.1%.
Then `CC1=NCCc2c1[nH]c1ccccc21.O=[N+]([O-])c1cc([N+](=O)[O-])c(O)c([N+](=O)[O-])c1`, with inactive: 5%.
As to `CCOC(=O)c1ccc(NP(C)(=O)Oc2cc(C)cc(C)c2)cc1` (stereo not given), the inhibition was inactive: -7.4%.
For `Cc1cc(C)cc(OP(C)(=O)Nc2ccc(C)cc2C)c1` (stereo not given), the inhibition is inactive: 7.7%.
Turning to `Cc1ccc(C)c(NP(C)(=O)Oc2ccccc2)c1` (stereo not given), the inhibition was inactive: 2.5%.
To `CP(=O)(Nc1cccc(Br)c1)Oc1ccccc1` (stereo not given) belongs inactive: 12.4%; to `Cc1cc(C)cc(OP(C)(=O)Nc2ccccn2)c1` (stereo not given), inactive: 3%; to `O=[N+]([O-])c1cc([N+](=O)[O-])c(-n2nnc3ccccc32)c([N+](=O)[O-])c1`, inactive: 7.2%.
As for `Cc1nc2ccc3ccccc3c2s1.O=[N+]([O-])c1cc([N+](=O)[O-])c(O)c([N+](=O)[O-])c1`, the inhibition is inactive: 8.5%.
As for `CP(=O)(Nc1ccc(SC(F)(F)F)cc1)Oc1ccccc1` (stereo not given), the inhibition is inactive: 1.9%.
Take `CCCOc1ccc(NP(C)(=O)Oc2ccc(Cl)cc2)cc1` (stereo not given): the inhibition is inactive: 0.1%.
To `CN1CCCCC1COC(=O)C1(O)c2ccccc2CCc2ccccc21` (stereo not given) belongs inactive: 19.7%; to `COc1ccccc1OP(C)(=O)Nc1c(C)cccc1C` (stereo not given), inactive: 16.8%.

The inhibition is the change of the read-out against control, counted positive when it falls.
